These results are taken from PubChem BioAssay AID588664 (The Scripps Research Institute Molecular Screening Center, 2011).

Chains of the proteins cited; added tags and fusions are not shown.
UniProt P00519, whole entry, looked up: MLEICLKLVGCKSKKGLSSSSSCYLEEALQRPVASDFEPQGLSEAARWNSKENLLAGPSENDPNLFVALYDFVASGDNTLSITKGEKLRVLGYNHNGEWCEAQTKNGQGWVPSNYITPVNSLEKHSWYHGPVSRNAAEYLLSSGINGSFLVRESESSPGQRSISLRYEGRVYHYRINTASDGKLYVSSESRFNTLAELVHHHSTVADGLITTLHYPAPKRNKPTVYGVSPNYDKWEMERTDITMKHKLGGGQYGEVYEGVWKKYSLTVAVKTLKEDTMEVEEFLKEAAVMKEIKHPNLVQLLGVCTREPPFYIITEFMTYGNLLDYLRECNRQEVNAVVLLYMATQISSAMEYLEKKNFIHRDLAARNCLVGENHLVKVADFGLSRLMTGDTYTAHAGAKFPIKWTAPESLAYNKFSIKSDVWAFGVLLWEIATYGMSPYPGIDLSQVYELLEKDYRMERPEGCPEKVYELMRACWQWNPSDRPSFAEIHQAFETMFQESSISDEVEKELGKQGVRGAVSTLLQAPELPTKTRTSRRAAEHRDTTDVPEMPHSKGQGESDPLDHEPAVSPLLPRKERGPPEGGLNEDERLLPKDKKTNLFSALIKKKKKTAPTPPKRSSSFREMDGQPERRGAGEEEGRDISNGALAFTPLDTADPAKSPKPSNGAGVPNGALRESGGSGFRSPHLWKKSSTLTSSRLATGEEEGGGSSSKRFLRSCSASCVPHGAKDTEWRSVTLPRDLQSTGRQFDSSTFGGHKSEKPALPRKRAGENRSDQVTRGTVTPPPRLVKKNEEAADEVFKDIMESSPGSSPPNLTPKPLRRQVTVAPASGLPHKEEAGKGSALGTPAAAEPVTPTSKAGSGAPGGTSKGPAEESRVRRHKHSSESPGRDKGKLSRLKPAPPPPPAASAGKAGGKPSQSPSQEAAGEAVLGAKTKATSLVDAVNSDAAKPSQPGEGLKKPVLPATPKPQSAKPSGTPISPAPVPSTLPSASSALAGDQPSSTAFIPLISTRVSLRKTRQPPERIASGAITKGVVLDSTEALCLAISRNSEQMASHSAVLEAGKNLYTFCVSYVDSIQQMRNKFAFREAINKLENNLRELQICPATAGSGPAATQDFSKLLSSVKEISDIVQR
UniProt Q13671, whole entry, looked up: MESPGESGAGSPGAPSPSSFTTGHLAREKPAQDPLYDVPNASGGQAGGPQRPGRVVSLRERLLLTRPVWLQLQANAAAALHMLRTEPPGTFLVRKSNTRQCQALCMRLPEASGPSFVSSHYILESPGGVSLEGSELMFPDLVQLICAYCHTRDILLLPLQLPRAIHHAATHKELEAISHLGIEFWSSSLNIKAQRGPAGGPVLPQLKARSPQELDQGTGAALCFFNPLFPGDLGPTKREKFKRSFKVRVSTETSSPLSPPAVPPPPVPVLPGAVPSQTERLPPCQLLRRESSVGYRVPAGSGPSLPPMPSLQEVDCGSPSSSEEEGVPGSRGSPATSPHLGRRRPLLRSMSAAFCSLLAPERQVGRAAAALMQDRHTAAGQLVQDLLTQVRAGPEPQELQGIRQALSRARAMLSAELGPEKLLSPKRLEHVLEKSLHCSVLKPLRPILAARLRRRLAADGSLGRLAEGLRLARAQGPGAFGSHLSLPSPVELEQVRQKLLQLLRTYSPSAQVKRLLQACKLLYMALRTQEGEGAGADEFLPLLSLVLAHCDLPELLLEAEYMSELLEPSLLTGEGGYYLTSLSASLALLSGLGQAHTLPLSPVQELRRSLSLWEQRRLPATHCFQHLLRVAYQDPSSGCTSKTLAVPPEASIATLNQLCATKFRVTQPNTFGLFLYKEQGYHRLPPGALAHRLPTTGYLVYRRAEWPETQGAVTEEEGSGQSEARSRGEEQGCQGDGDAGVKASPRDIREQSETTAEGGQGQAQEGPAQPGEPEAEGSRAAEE

This is a selection; strong and weak results do not stand in their true shares. Active and inactive are the calls of the source. Rule as the data show it: active = inhibition above about 5% (passing the limit was not always enough); inactive = the rest.

The target of this assay is Tyrosine-protein kinase ABL1 (Homo sapiens) + Ras and Rab interactor 1 (Homo sapiens) (UniProt P00519+Q13671). The assay is described as follows: disruptors of human Abl and Rin1 association – biochemical, TR-FRET, primary screen (AID 588664). The conditions noted are these: TR-FRET Rin1/Abl binding, at 7.35 µM, hits give high values.
A word on the inhibition: it is the share of the control response that was lost under treatment. For the molecule `CCC(=O)N(c1ccccc1)C1(COC)CCN(CCc2cccs2)CC1`, the inhibition was inactive: 0.94%.

`CCC(=O)N(c1ccccc1)C1(COC)CCN(CCn2nnn(CC)c2=O)CC1`: the inhibition was inactive: 1.18%.
